Source: patent EP4813980A1, “EP300/CBP REGULATOR, AND PREPARATION METHOD THEREFOR AND USE THEREOF” (Miracure Biotechnology Limited, priority 2023, dated 2025)

Sequences of proteins named here, by UniProt entry; tags and fusion partners are left off. Residues count along the entry.
UniProt Q92793, 1085-1192 limits assumed: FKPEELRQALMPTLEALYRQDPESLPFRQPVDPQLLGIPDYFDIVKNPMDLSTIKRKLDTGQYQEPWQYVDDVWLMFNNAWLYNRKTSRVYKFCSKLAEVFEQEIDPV

Molecular target: T1, CBP bromodomain (Homo sapiens, UniProt Q92793)
T1 construct: purchased
Test: CBP AlphaLISA Assay Kit: binding of CBP bromodomain to acetylated histone substrate
Conditions: 30 min incubation with CBP and biotinylated substrate, N=2, unit inferred
Experimental: The biochemical activity test of CBP preparations was detected using CBP AlphaLISA® Assay Kit. The detection principle is based on the binding of CBP bromodomain to acetylated histone substrate. The compounds were incubated with CBP and biotinylated substrate for 30 min, followed by the addition of acceptor beads for 15 min and donor beads for 15 min. Alpha counts were read, data were analyzed using Prism 7.0 and IC50 values were calculated.

CO[C@H]1CC[C@H](n2c([C@@H]3CCCC(=O)N3c3ccc(F)c(F)c3)nc3cc(-c4c(C)noc4C)ccc32)CC1 [CCS1477]
IC50: 9.9 nM
